Laboratory results taken from US10980890B2, “Compounds comprising self-immolative group” (LegoChem Biosciences, Inc., priority 2014, dated 2021).
Like-named read-outs stand apart in the source and are kept apart here.

Assays:
[1] = test system: human breast carcinoma cell line BT-474; experiment: In vivo anti-tumor efficacy, BT474 breast tumor orthotopic model; set-up: species or system Balb/c-nu female mice
Description: Efficacy of a drug depending on single-dose or multi-dose administration was evaluated using an orthotopic model.
(§1) A human breast carcinoma cell line BT-474 was purchased from Korea Cell Line Bank and cultured using RPMI 1640 (10% FBS, 1% penicillin/streptomycin) in an incubator (37° C., 5% CO2) in which a constant temperature and humidity was maintained. As experimental animals, Balb/c-nu female mice (6 weeks old) purchased from Japan SLC were used, and after acclimation period of 1 week, 17b-estradiol pellet (1.72 mg/pellet, Innovative Research of America, Sarasota, Fla.) was subcutaneously administered. After 6 days, BT474 cell (5×10^6 cells in 100 μL) was suitably mixed with 50% PBS/50% phenol red-free Matrigel (Becton Dickinson Bioscience) and injected into the second mammary fat pad, thereby making orthotopic models. A tumor size was measured twice per a week, and a volume was calculated by ½ [length (mm)]×[width (mm)]^2. The mice were grouped so as to have an average tumor volume of 100 mm^3 in each group after 3 weeks from cell injection, and then used in the experiment. Herceptin manufactured by Roche was purchased and used, and various ADCs were produced by the present inventors, and administered once a week or one time to the experimental animals through the lateral tail vein.
It was observed that weight changes and dead animals observed during the entire experimental period were irrelevant to the administered drugs.
Animal groups were the same as those in the multi-dose administration model, a total of 4 BT474 orthotopic mice were used per group, the drugs were administered once at an initiation point in time of the experiment through the tail vein, and only observation was performed during an experiment period of 5 weeks without additional drug administration. […] It was observed that weight changes and dead animals observed during the entire experimental period were irrelevant to the administered drugs.

[2] = Body weight change / tolerability in BT474 breast cancer orthotopic model; type: in vivo, Balb/c-nu female mice; conditions: 5 mg/kg QW
Description: as §1, with “experiment.” for “experiment. Herceptin manufactured by Roche was purchased and used, and various ADCs were produced by the present inventors, and administered once a week or one time to the experimental animals through the lateral tail vein.”

[3] = In vivo mouse PK profile (total antibody, ELISA); conditions: ICR male mice, 2.5 mg/kg i.v. single dose
In vivo rat PK test = conditions: female rats, 3.0 mg/kg i.v. single dose
[4] = monkey, in vivo, iv, 3 mg/kg

## trastuzumab [Herceptin]
[1]; 5 mg/kg once
  time after single-dose administration from which tumor regrowth was observed: 10 days
[1]; 5 mg/kg once, 5 weeks observation (FIG. 12)
  Tumor growth, single-dose administration: tumor regrowth phenomenon was observed
[1]; 5 mg/kg, once a week, 4 times, tail vein (FIG. 11)
  Tumor growth, multi-dose administration: tumor growth was partially inhibited
[1]; 5 mg/kg, once a week, three times, tail vein (FIG. 10)
  Tumor growth / tumor volume: tumor growth was partially inhibited
[2]; Day 4
  Body Weight Change: 22.1
[2]; Day 7
  Body Weight Change: 22.1
[2]; Day 10
  Body Weight Change: 21.9
[2]; Day 14
  Body Weight Change: 21.1
[2]; Day 21
  Body Weight Change: 22.5
[3]
  C0: 39.20 µg/mL
In vivo rat PK test
  Alpha HL: 2.16 ± 0.50 days
  V1: 36.72 ± 1.08 mL/kg
[4]
  V1: 36.08 ± 0.62 mL/kg
